Experimental data published in PMC8289286, “In Silico, In Vitro, and In Vivo Evaluation of Precipitation Inhibitors in Supersaturated Lipid-Based Formulations of Venetoclax” (Molecular Pharmaceutics, 2021).

Assay: In vitro PI testing by solvent shift in FaSSIF
Type: physicochemical
Procedure: The in vitro PI testing for venetoclax was done by means of a solvent shift. The effect of a fully hydrated PI (dissolved in FaSSIF) was compared against the PI in the formulation. Thus, the employed PIs HPMC, HPMCAS, Eudragit EPO, PVP, PVP/VA, and Pluronic F108 were dissolved in either FaSSIF or either suspended or dissolved in the sLBF. […] The vials were sealed and placed in a water bath shaker at 200 shakes/min and 37 °C (GLS400, Grant Instruments, UK). […] The samples were filtered with a 0.2 μm syringe filter (Whatman Spartan 13/0.2) and samples that contained lipids were additionally centrifuged for 30 min at 21,380g and 37 °C (Mikro 200 R, Hettich GmbH, Germany). […] A pure (nondiluted) and a diluted sample were analyzed by HPLC as described above. Additionally, the solubility of venetoclax was determined in FaSSIF with dissolved PI.

solubilized venetoclax, sLBF-PI: 5.1 ± 0.2% | solubilized venetoclax, sLBF-aqPI: 0.5 ± 0.02%
Substance: hydroxypropyl methylcellulose acetate succinate [HPMCAS]
